How the values were obtained:
[1] = molecular target: C-terminal deleted GST-BCL-2 (UniProt P10415); experiment: fluorescence polarization, displacement of prebound FITC-BID BH3 from BCL-2
[2] = molecular target: C-terminal deleted GST-BCL-2 (UniProt P10415); experiment: direct fluorescence polarization, 25 nM fluoresceinated peptide with GST-BCL2 25-1000 nM

Chains of the proteins cited; added tags and fusions are not shown. Lines headed by an entry give the natural chain unless they say otherwise; changes in a name come on top.
UniProt P55957: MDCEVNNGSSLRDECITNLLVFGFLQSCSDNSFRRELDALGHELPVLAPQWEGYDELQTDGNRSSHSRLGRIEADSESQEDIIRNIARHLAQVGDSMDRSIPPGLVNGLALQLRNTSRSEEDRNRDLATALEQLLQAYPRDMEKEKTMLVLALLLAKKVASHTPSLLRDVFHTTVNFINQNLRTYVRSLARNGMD

IC50 [1] | Kd [2] | Molecule
838 nM | – | unlabeled unmodified BID BH3 peptide (from UniProt P55957 80-101)
– | 269 nM | EDIIRNIARHLAQVGDSMDRSI (peptide, UniProt P55957 80-101, looked up, amino terminus derivatized with b-alanine and fluorescein isothiocyanate (FITC)) [FITC-labeled unmodified BID BH3 peptide]

From patent US9273099 (Dana-Farber, dated 2016)
